Results published in patent US8846948B2, “Compounds” (Boehringer Ingelheim International GmbH, priority 2011, dated 2014).
pEC50: −log10 of the molar value.

The chains behind the UniProt entries cited, without tags or fusion partners. Residues count along the entry.
UniProt P41594, 21-1212 limits assumed: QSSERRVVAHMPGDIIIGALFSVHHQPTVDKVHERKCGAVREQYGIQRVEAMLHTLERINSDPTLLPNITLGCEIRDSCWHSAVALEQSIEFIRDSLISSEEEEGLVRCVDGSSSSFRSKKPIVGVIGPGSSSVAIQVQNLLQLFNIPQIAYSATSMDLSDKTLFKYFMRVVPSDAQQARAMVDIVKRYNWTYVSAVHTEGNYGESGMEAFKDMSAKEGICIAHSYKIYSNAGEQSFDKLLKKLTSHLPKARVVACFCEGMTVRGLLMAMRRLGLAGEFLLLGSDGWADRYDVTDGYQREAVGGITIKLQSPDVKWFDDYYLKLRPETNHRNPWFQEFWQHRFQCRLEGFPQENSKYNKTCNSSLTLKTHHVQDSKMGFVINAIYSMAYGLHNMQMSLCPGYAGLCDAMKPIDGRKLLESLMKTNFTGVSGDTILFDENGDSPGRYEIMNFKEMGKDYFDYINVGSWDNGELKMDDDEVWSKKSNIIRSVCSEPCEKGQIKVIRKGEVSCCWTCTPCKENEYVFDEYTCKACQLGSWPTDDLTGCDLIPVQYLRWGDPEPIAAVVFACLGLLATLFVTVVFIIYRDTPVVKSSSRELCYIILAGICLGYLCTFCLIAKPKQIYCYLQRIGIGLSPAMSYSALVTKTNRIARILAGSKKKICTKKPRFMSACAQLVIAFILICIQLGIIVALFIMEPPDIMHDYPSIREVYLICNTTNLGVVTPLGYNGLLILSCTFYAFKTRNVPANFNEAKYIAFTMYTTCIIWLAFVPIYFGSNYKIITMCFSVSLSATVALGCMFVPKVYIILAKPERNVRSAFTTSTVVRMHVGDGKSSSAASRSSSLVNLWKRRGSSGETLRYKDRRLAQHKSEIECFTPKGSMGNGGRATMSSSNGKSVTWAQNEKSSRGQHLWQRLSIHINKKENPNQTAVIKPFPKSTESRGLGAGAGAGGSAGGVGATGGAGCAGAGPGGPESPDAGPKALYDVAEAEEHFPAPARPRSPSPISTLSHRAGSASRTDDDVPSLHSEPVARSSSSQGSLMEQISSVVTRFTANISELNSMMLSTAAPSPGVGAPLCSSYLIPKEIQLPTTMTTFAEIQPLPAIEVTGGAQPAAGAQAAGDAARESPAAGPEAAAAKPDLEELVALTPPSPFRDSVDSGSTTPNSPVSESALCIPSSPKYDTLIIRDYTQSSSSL

Biological target: human recombinant mGluR5 (Homo sapiens, UniProt P41594)
Assay: Positive modulation of mGluR5, calcium based FLIPR assay
Settings: EC50 of the modulation; HEK 293 cell line expressing human recombinant mGluR5; peak height of Ca release fluorescence signal after glutamate at approximately 5% basal stimulation
Experimental: The positive modulation of mGluR5 is measured in a HEK 293 cell line expressing human recombinant mGluR5 and is detected with calcium based FLIPR assay. The cells are cultured with DMEM supplemented with 10% FCS, 2 μg/mL tetracycline, 100 μg/mL hygromycin and 500 μg/mL gneticin. The cell culture media is exchanged for tetracycline-free cell culture media 3-7 days before the assay. One day before the assay the cell culture medium is exchanged to DMEM without glutamine and phenol red and supplemented with 10% FCS, 100 μg/mL hygromycin and 500 μg/mL geneticin. On the assay day, the medium of the subconfluent cultures is removed and the cells are detached by addition of 2.5 ml EDTA (0.02%) per 175 cm2 culture flask for 1 minute. […]
20 μl of each compound solution are then transferred to the assay plate and the Ca2+ kinetic is measured to determine any intrinsic compound activity. After 5 mM incubation in the FLIPR device, the second stimulation with 20 μl of glutamate in Ringer solution (glutamate concentration adjusted to approximately 5% basal stimulation of the maximal possible glutamate effect) is added and the kinetic Ca2+ response of the wells was measured for the modulation effect.
The peak height of the Ca release related fluorescence signal (9-66) is used for the EC50. The EC50 of the modulation is calculated over a nonlinear regression with GraphPad Prism (Table 1).

In the case of O=C(Cn1cc(-c2ccccc2)nc1-c1ccc(F)cc1)N1CCN(c2ccccn2)CC1, the pEC50 was 6.07.
